## Curated experimental data: melting point values

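These are experimental values that the OPERA curators gathered from public databases to train and test their QSAR models. A listed value is a point estimate from one report or more. Method and conditions are not stated for these values. A value may pool stereoisomers or salt forms, and the file does not say which form was measured. Some entries may be limits or estimates that an upstream database listed as plain numbers.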

Melting points are in °C.
Cells with "n/a" have no entry in this list.
"via" names the databases from which the curators took the value.

structure (SMILES) | name | melting point (°C) | via
C[C@]12CC=C3[C@@H](CC[C@@]45CC6(CC[C@@]34O5)OCCO6)[C@@H]1CCC2=O | n/a | 120 | eChemPortal
CC(C)=CC(=O)O[C@@H]1CC(C)(C)C[C@H]2C3=CC[C@@H]4[C@@]5(C)CCC(=O)C(C)(C)[C@@H]5CC[C@@]4(C)[C@]3(C)CC[C@@]12C(=O)O | Lantadene B | 302 | PubChem
CC(C)=CCC1(C(C)(C)C)C(O)=NC(=O)N=C1O | Barbituric acid,5tBu-5(3Me3buten) | 212 | OCHEM
C[C@]12CCC(=O)N[C@@H]1CC[C@@H]1[C@@H]2CC[C@]2(C)C(=O)CC[C@@H]12 | n/a | 301 | eChemPortal
Clc1ccc(-c2ccccc2)c(Cl)c1 | 2,4-Dichlorobiphenyl | 24 | QSARDB
CC(=O)C(C#N)c1ccc(Cl)cc1 (stereo not given) | Benzeneacetonitrile, .alpha.-acetyl-4-chloro- | 130 | OCHEM
O=C(NC(O)C(Cl)(Cl)Cl)NC(O)C(Cl)(Cl)Cl (stereo not given) | Dichloralurea | 196 | PubChem
COc1cc2c(c3oc(=O)c4c(c13)CCOC4=O)[C@@H]1CCO[C@@H]1O2 | Aflatoxin G2 | 238.6 | PubChem
c1ccc2c(c1)ccc1c3ccc4ccccc4c3[nH]c21 | 1,2;7,8-Dibenzocarbazole | 216 | QSARDB
C[C@@H]1C[C@@]2(O[C@H]2C)C(=O)O[C@@H]2CCN3CC=C(COC(=O)[C@]1(C)O)[C@H]23 | Jacobine | 228 | PubChem
NC(=O)N1CCC(=O)CC1 | 4-oxopiperidine-1-carboxamide | 138 | OCHEM
Cc1cc(C(=O)O)c(C)n1C(C)C | 2,5-Dimethyl-1-(propan-2-yl)-1H-pyrrole-3-carboxylic acid | 179 | OCHEM
COc1cc2c(c3oc4cccc(O)c4c(=O)c13)C1C=COC1O2 (stereo not given) | Sterigmatocystin | 246 | PubChem
NC(=O)c1ccc(CCl)cc1 | 4-(Chloromethyl)benzamide | 179 | OCHEM
Cc1nn(Cc2ccccc2)c(C)c1C=O | 1-Benzyl-3,5-dimethyl-1H-pyrazole-4-carbaldehyde | 73 | OCHEM
CC(C)=NN(c1ccccc1)P(=O)(N1CC1)N1CC1 | n/a | 120 | OCHEM
CCCCCC[C@H]1C(=O)O[C@H](C)[C@H](NC(=O)c2cccc(NC=O)c2O)C(=O)O[C@@H](C)[C@@H]1OC(=O)CC(C)C | Antimycin A1 | 150 | OCHEM
COc1c(F)cc(CBr)cc1F | 5-(Bromomethyl)-1,3-difluoro-2-methoxybenzene | 40.5 | OCHEM
CCc1nnc(NC(=O)CCl)s1 | 2-Chloro-N-(5-ethyl-1,3,4-thiadiazol-2-yl)acetamide | 102 | OCHEM
Cc1nc2ccccc2c(=O)n1-c1ccc(Br)cc1 | 3-(4-bromophenyl)-2-methylquinazolin-4(3H)-one | 177 | OCHEM
CCN1CCc2nc3ccccc3c(C(=O)O)c2C1 | n/a | 279 | OCHEM
Clc1ccc(Cl)c(-c2cc(Cl)c(Cl)c(Cl)c2Cl)c1 | 2,2',3,4,5,5'-Hexachlorobiphenyl | 85 | QSARDB
O=C(CCl)c1ccc(I)cc1 | 2-chloro-1-(4-iodophenyl)ethanone | 128 | OCHEM
c1cnc(N2CCNCC2)cn1 | 1-Piperazinylpyrazine | 49 | OCHEM
CNC(C)Cc1ccc2c(c1)OCO2.Cl (racemic) | n/a | 150 | OCHEM
COc1ccc(Br)cc1CBr | 4-bromo-2-(bromomethyl)-1-methoxybenzene | 54.5 | OCHEM
ClCc1nc(-c2ccco2)no1 | 5-(chloromethyl)-3-(2-furyl)-1,2,4-oxadiazole | 83 | OCHEM
COC1=CC2=CC[C@H]3[C@@H]4[C@@H](OC(C)=O)CC(=O)[C@@]4(C)CC[C@@H]3[C@@]2(C)CC1 | n/a | 217 | eChemPortal
CC1=C[C@H]2[C@@]3(O)[C@H](C)[C@@H](O)[C@]4(O)[C@H]([C@@H]3C=C(CO)C[C@]2(O)C1=O)C4(C)C | Phorbol | 250.5 | PubChem
CCCn1c(C)c(C(=O)O)c2cc(OC)ccc21 | 5-Methoxy-2-methyl-1-propyl-1H-indole-3-carboxylic acid | 172 | OCHEM
CN1CCN(c2ccc(N)nc2)CC1 | 5-(4-Methylpiperazin-1-yl)pyridin-2-amine | 120 | OCHEM
Cc1nnc2n1-c1ccc(Cl)cc1C(c1ccccc1Cl)=NC2 | Triazolam | 234 | OCHEM, PubChem, QSARDB
Br.COc1ccc2c(c1)C13CCCCC1C(C2)N(C)CC3.O (stereo not given) | Dextromethorphan hydrobromide monohydrate | 170 | OCHEM
Clc1ccc(-c2cc(Cl)c(Cl)c(Cl)c2Cl)cc1Cl | 2,3,3',4,4',5-Hexachlorobiphenyl | 129 | QSARDB
COc1ccc2[nH]cc(C3=CCNCC3)c2c1 | n/a | 182 | OCHEM
C/C=C1/C[C@@H](C)[C@](O)(CO)C(=O)OCC2=CC[N+]3([O-])CC[C@@H](OC1=O)[C@@H]23 (some centres not stated) | Isatidine | 138 | PubChem
Clc1cc(Cl)c(-c2c(Cl)c(Cl)cc(Cl)c2Cl)cc1Cl | 2,2',3,4',5,5',6-Heptachloro-1,1'-biphenyl | 147 | QSARDB
COC(=O)[C@@H]1C[C@H](OC(C)=O)C(=O)[C@H]2[C@@]1(C)CC[C@H]1C(=O)O[C@H](c3ccoc3)C[C@]21C | Salvinorin A | 239 | PubChem
c1cnc2[nH]cc(C3CCNCC3)c2c1 | 4-{1H-pyrrolo[2,3-b]pyridin-3-yl}piperidine | 160 | OCHEM
Cl.ClCc1cccnc1 | 3-(Chloromethyl)pyridine hydrochloride | 142.5 | PubChem
N#Cc1ccsc1NC(=O)CCl | 2-chloro-N-(3-cyanothiophen-2-yl)acetamide | 165 | OCHEM
COc1ccc(CC(N)c2ccc(OC)cc2)cc1.Cl (stereo not given) | n/a | 176 | OCHEM
O=C(Cl)OCCOCCOC(=O)Cl | Diethlylene glycol bis chloroformate | 6.6 | eChemPortal
C=CCC1(C)C(O)=NC(=O)N=C1O | 2,4,6(1H,3H,5H)-Pyrimidinetrione, 5-methyl-5-(2- | 167 | OCHEM

Excerpt, the opening 6 entries:

structure (SMILES) | name | melting point (°C) | via
C[C@]12CC=C3[C@@H](CC[C@@]45CC6(CC[C@@]34O5)OCCO6)[C@@H]1CCC2=O | n/a | 120 | eChemPortal
CC(C)=CC(=O)O[C@@H]1CC(C)(C)C[C@H]2C3=CC[C@@H]4[C@@]5(C)CCC(=O)C(C)(C)[C@@H]5CC[C@@]4(C)[C@]3(C)CC[C@@]12C(=O)O | Lantadene B | 302 | PubChem
CC(C)=CCC1(C(C)(C)C)C(O)=NC(=O)N=C1O | Barbituric acid,5tBu-5(3Me3buten) | 212 | OCHEM
C[C@]12CCC(=O)N[C@@H]1CC[C@@H]1[C@@H]2CC[C@]2(C)C(=O)CC[C@@H]12 | n/a | 301 | eChemPortal
Clc1ccc(-c2ccccc2)c(Cl)c1 | 2,4-Dichlorobiphenyl | 24 | QSARDB
CC(=O)C(C#N)c1ccc(Cl)cc1 (stereo not given) | Benzeneacetonitrile, .alpha.-acetyl-4-chloro- | 130 | OCHEM

Data: OPERA 2.9 data sets, kmansouri/OPERA on GitHub.